One may read the IC50 as the midpoint of a concentration-inhibition curve.

Sequences of proteins named here, by UniProt entry; tags and fusion partners are left off. Residues count along the entry.
UniProt P00748, 20-372 partner limits assumed: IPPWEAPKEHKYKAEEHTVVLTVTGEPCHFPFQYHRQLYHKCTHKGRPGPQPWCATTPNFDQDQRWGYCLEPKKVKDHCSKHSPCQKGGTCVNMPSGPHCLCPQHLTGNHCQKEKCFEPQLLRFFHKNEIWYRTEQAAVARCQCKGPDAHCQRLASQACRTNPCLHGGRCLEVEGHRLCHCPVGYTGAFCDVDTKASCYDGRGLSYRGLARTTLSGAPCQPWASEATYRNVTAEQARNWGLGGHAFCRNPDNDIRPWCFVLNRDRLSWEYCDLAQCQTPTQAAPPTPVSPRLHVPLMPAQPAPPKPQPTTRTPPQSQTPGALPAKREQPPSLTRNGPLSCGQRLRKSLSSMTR
UniProt P00748, 373-615 limits assumed: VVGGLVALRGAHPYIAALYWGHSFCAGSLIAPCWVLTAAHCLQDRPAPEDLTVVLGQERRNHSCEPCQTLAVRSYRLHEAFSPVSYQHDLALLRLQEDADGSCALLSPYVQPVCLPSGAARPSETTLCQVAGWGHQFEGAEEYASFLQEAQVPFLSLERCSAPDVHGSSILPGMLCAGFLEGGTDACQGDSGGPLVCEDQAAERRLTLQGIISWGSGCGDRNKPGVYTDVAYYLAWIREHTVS
UniProt P03951, 19-387 partner limits assumed: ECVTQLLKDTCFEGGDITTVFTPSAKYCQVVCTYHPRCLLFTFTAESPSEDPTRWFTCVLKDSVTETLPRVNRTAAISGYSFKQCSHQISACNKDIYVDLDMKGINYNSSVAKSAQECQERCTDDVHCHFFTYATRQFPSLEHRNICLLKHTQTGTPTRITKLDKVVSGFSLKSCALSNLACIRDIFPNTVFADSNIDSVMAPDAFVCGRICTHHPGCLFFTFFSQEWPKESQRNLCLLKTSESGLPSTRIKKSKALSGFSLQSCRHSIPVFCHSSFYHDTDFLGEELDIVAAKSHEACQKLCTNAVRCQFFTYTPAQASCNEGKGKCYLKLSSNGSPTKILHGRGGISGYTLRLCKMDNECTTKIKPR
UniProt P03951, 388-625 limits assumed: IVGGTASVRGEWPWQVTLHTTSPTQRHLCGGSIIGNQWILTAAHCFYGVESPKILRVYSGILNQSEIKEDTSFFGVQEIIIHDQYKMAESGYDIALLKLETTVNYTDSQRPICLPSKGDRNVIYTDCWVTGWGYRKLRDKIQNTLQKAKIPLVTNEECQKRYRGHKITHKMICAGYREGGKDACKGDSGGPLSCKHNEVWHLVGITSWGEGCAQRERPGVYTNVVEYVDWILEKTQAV

The source of these data is patent US20220289727A1, “ENZYME INHIBITORS” (KALVISTA PHARMACEUTICALS LIMITED, priority 2019, published 2022).

In one test the target is Human Factor XIIa (Homo sapiens, UniProt P00748). Put plainly: Determination of FXIIa inhibitory activity in vitro (fluorogenic substrate H-DPro-Phe-Arg-AFC). Format: biochemical. The settings on record: read-out: Human FXIIa IC50, 25° C., residual enzyme activity (initial rate).
The target of a further test is Human FXIa (Homo sapiens, UniProt P03951). Put plainly: Determination of FXIa inhibitory activity in vitro (fluorogenic substrate Z-Gly-Pro-Arg-AFC). Format: biochemical. The settings on record: read-out: Human FXIa IC50, selectivity, 25° C., residual enzyme activity (initial rate).

Take `CC(=O)N(CC1CCN(C)CC1)c1c(C(=O)NCc2ccc3c(N)nccc3c2)sc(Cl)c1C`: the IC50 on Human Factor XIIa is 10 to 40 µM; on Human FXIa it was above 40 µM.
In the case of `CC(=O)N(CC1CCN(C)CC1)c1cc(C)sc1C(=O)NCc1ccc2c(N)nccc2c1`, the IC50 at Human Factor XIIa was 10 to 40 µM; on Human FXIa, above 40 µM.
Take `CC(=O)N(CC1CCN(C)CC1)c1c(C)csc1C(=O)NCc1ccc2c(N)nccc2c1`: the IC50 was 10 to 40 µM on Human Factor XIIa and above 40 µM at Human FXIa.
